Values quoted from earlier work as cited in US8741962B2, “Process for preparation of Rasagiline and salts thereof” (USV Limited, priority 2009, dated 2014).

The chains behind the UniProt entries cited, without tags or fusion partners.
UniProt P27338, whole entry, species assumed: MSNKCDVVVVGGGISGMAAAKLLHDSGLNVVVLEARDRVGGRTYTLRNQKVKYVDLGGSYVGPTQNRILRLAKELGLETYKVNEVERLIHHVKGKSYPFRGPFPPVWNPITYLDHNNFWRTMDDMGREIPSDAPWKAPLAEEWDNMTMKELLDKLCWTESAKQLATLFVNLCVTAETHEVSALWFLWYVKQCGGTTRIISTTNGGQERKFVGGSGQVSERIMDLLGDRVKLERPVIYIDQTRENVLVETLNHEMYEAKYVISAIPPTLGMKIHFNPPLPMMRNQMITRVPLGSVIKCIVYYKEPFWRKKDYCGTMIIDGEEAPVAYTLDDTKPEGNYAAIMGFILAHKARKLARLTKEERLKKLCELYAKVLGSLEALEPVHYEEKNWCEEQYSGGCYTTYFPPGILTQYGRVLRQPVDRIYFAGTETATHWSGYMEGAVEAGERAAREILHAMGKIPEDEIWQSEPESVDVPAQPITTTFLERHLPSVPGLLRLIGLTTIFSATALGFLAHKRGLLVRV

Target: MAO-B (Homo sapiens, UniProt P27338)
Conditions: cited from earlier work

Row | Structure (SMILES) | MAO inhibition activity in vitro
1 | C#CCN[C@@H]1CCc2ccccc21.Cl [R-(+)-Rasagiline hydrochloride, (1R)-2,3-dihydro-N-2-propynyl-1H-indane-1-amine hydrochloride] | highly potent and MAO-B-selective inhibition activity
2 | C#CCN[C@@H]1CCc2ccccc21.CS(=O)(=O)O [R(+)-Rasagiline mesylate, (1R)-2,3-dihydro-N-2-propynyl-1H-indane-1-amine mesylate] | highly potent and MAO-B-selective inhibition activity
